Test system: patient-derived NK cells
Experiment: NK cell receptor expression after culture of PBMCs with IL-2
Type: cell-based, human
Conditions: PBMCs from CMML patients cultured 72h; IL-2 500 u/ml
Method: Immunophenotyping by flow cytometry. NK cell expression of activating receptors before and after cell culture was measured by flow cytometry in 10 CMML patients and 10 healthy age-matched controls. In these experiments, cells were cultured in 96-well plates for 3 days at a concentration of 1×10^6 cells per well in 200 μl with IL-2 (500 u/ml) present. Cells were then stained on days 1 and day 3 and analyzed using a 4-laser BD LSRFortessa SORP flow cytometer. NK cells were defined as CD37CD56+ cells. The analyses comprised the following receptors of relevance to NK cell activation or maturation: NKp30-PE (clone: AF29-4D12), NKp80-APC (clone: 4A4.D10) and DNAM-1-PE-Cy7 (clone: DX11), all from Miltenyi Biotec. NKp46-PE (clone: 9E2), NKG2D-PE-Cy7 (clone: 1D11), LFA-1b-APC (clone: 6.7), CD57-FITC (clone: HNK-1) were from BD Pharmingen. 2B4-FITC were from R&D systems and NKG2C-Pacific Blue (clone: MM0488-9R17) from Novus Biologicals.

IL-2: human recombinant IL-2 (aldesleukin)
expression of NKp30, NKp46 and DNAM1: significantly enhanced

— patent US20210292417A1, “HISTAMINE DIHYDROCHLORIDE COMBINATIONS AND USES THEREOF” (Immune Pharmaceuticals LTD., priority 2016, published 2021)
